Our source for the Activity values is ChEMBL document CHEMBL1152900, “Synthesis and evaluation of the antioxidant and anti-inflammatory activity of novel coumarin-3-aminoamides and their alpha-lipoic acid adducts” (Eur J Med Chem, 2009).

This assay in a line: Antioxidant activity assessed as reduction of DPPH activity at 0.1 mM after 20 mins. On the set-up: scale not given: the % may be the effect or the level left. The format is functional. The gist of the method:
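DPPH at 0.05 mM final in absolute ethanol was mixed with test compounds in ethanol at 0.1 or 0.5 mM final, with ethanol as the control. After 20 and 60 min at room temperature, absorbance was read at 517 nm. At least triplicate.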

On to `CC(Cc1ccc(O)c(O)c1)C(C)Cc1ccc(O)c(O)c1` (stereo unspecified), for which the Activity worked out at 81%.
